Key:
whole human blood = experiment: Proinflammatory cytokine induction in whole human blood assays; assay type: cell-based; conditions: 2 relative to 1
CD14+ monocytes = experiment: Eight-color flow cytometry of activation markers in human whole blood; conditions: FIG. 5

Compound	proinflammatory cytokine induction (whole human blood)	CD40 upregulation (CD14+ monocytes)
CCCCc1nc2c(N)nc3ccccc3c2n1Cc1cccc(CN)c1	higher proinflammatory cytokine induction	–
CCCCc1nc2c(N)nc3ccccc3c2n1Cc1ccc(CN)cc1	–	upregulate CD40

— patent US12180165B2, “Human TLR8-selective agonists” (University of Kansas, priority 2015, dated 2024)
